This is an account of results in PubChem BioAssay AID1671194 (National Center for Advancing Translational Sciences (NCATS), 2021).

Structures are written as SMILES. The entries are a selection whose mix differs from that of the whole data set. Some tests of the compounds listed are not included; inactive here does not mean inactive elsewhere. Records with an inconclusive call do not appear. Calls of active or inactive are those of the source. The call rests on the fitted dose curve; in most records, active means well fitted inhibition curve with a large enough effect; inconclusive means small, poorly fitted or top-dose-only effect; inactive means no such curve, though single readings can be large or run the other way.

This assay is described as follows: Primary qHTS assay for inhibitors of alpha-synuclein gene (SNCA) expression. Further: nearly all actives have a fitted effect of over 45% in size. As to conditions: HEK-293 SNCA-luciferase knock-in, luminescence, 24 h; at 57.2 µM (top of the series). The text has this:
Assay Submitter (PI): Daniel R. Scoles Ph.D.
Department of Neurology, University of Utah, Salt Lake City, Utah
Accumulation of alpha-synuclein is a main underlying pathological feature of Parkinson's disease (PD) and alpha-synucleinopathies, for which lowering expression of the alpha-synuclein gene (SNCA) is a potential therapeutic avenue. Using a cell-based luciferase reporter of SNCA expression we performed a quantitative high throughput screen (qHTS) of 155,885 compounds in dose response. The screening assay was generated using genome editing to insert the luciferase gene downstream and in frame of the SNCA gene in HEK-293 cells (1). A viability counterscreen using GF-AFC was used to eliminate cytotoxic and false positive compounds. After in silico analysis (clustering, removal of frequent hitter nuisance chemotypes), inhibitor compounds from the primary screen were selected for follow up and re-tested at 11-doses in the SNCA-luc cells (luciferase and GF-AFC confirmation), and in CMV-luc expressing cell line to flag general transcriptional repressors.
Described herein are the results of the primary screen for SNCA inhibitors; decrease in luciferase signal (inhibition of the SNCA gene expression) is the desired output for this assay.
1. Dansithong, W., Paul, S., Scoles, D. R., Pulst, S. M., and Huynh, D. P. (2015) Generation of SNCA Cell Models Using Zinc Finger Nuclease (ZFN) Technology for Efficient High-Throughput Drug Screening. PLoS ONE 10, e0136930.
SEQUENCE No. (e.g., 1, 2, 3, etc.); […] (e.g., Cells, Incubation, Reagent, etc.); VALUE; DESCRIPTION
1; Cells; 4 uL; Dispense 1500 HEK-293-SNCA-luc cells/well into Greiner 1536-well white / solid bottom tissue culture treated plate. The plate was covered with metal lids with gas-exchange holes.
2; Incubate; 24 hours; Incubate at 37C, 5% CO2, 95% RH.
3; Compounds; 23 nL; Compounds and controls were transferred via a Kalypsys Pin Tool (Wako USA) equipped with a 1536-slotted pin array. The plate was covered with metal lids with gas-exchange holes.
4; Incubate; 24 hours; Incubate at 37C, 5% CO2, 95% RH.
5; Dispense; 1 uL; Dispense Gly-Phe-7-amino-4-trifluoromethylcoumarin (GF-AFC, prepared at 125 uM in PBS) was added. The plate was covered with metal lids with gas-exchange holes.
6; Incubate; 30 min; Incubate at 37C, 5% CO2.
7; Detector; Fluorescence; Measure fluorescence with ViewLux microplate reader (PerkinElmer) equipped with 405/10 excitation and 540/25 emission filters.
8; Dispense; 3 uL; Dispense ONE-Glo ([…]) lucifase detection reagent was added to each well. Plates were covered with metal lids with gas-exchange holes.
9; Incubate; 15 min; Incubate at room temperature.
10; Detector; Luminescence; Measure luminescence with ViewLux microplate reader (PerkinElmer) equipped with clear filters.
NOTES (numbers refer to sequence above)
1; HEK-293-SNCA-luc were cultured and suspended in phenol-red free DMEM (4.5 g/L glucose, 25 mM HEPES, cat #21063 (Thermo)).
3; Compounds were added to the assay plate in an 11-point intra plate dose response, 1:3 titration in DMSO with a final concentration range of […]. Vehicle-only plates, with DMSO being pin-transferred to every well, were inserted at the beginning of screening runs to confirm expected assay performance. Activity was normalized to wells containing medium only (-100% activity, full inhibition) and SNCA-luc cells treated with DMSO vehicle control (0% activity), contained on the same plate as test samples.
10; Signals were analyzed, and dose-response curves were fit using the Hill equation. Compounds in curve classes -1.1, -1.2, -2.1, -2.2 in the SNCA-luc assay were considered active. Compounds were eliminated from further consideration if also active (curve class -1.1, -1.2, -1.3, -1.4, -2.1, -2.2, -2.3, -2.4) in the GF-AFC cytotoxicity assay.
In general terms: In qHTS, concentration-response curves come from the screen itself.
`COc1ccc(C(=O)NCC2(N(C)C)CCCCC2)cc1Cl`: the activity change, negative = inhibition was inactive: 19.1%.
`CC(C)Oc1ccc(C(=O)NCC2(N(C)C)CCCCC2)cc1`: the activity change, negative = inhibition is inactive: 15.2%.
Regarding `COc1cc(C(=O)NCC2(N(C)C)CCCCC2)cc(OC)c1OC`, the activity change, negative = inhibition is inactive: -7.9%.
With `Cc1cccc(C(=O)NCC2(N(C)C)CCCCC2)c1`, the activity change, negative = inhibition is inactive: 3.29%.
Under `CC(C)COc1ccc(C(=O)NCC2(N(C)C)CCCCC2)cc1` stands inactive: 7.18%; under `CN(C)C1(CNC(=O)c2ccccc2F)CCCCC1`, inactive: -18.3%; under `CCOc1cccc(C(=O)NCC2(N(C)C)CCCCC2)c1`, inactive: -3.83%.
The result for `CCCCOc1ccccc1C(=O)NCC1(N(C)C)CCCCC1` reads inactive: 7.78%.
Under `CN(C)C1(CNC(=O)c2ccccc2[N+](=O)[O-])CCCCC1` stands inactive: -5.64%.
